Ab-14 heavy chain CDR variants: yeast mating affinities

Data: MIT Lincoln Laboratory AlphaSeq set, Li et al. 2023, doi:10.1038/s41467-023-39022-2, as distributed in FLAb.

Binding partner: SARS-CoV-2 spike HR2 peptide, sequence PDVDLGDISGINAS.

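This is the validation round: designs drawn from the data on random variants, tested in the same kind of assay. Group labels follow the data file (Ctrl: baseline library sampled from a position-specific scoring matrix, with some repeated check sequences; Rand: our label for a block that the file lists under HC and that is probably the random mutants of the ten best first-round binders; En: ensemble of fine-tuned language models; GP: Gaussian process model; GPLM: also part of the Gaussian process libraries; HC: hill climbing; Gen: genetic algorithm; Gibbs: Gibbs sampling; a sequence that several methods proposed may carry one label only). The assay is AlphaSeq: two haploid yeast populations carry antibody and antigen on their surface. Binding brings cells together so that they mate, and sequencing counts the barcode pairs among the diploids. Read counts were normalised to the haploid input and turned into Kd by a linear fit to BCL2-family pairs of known affinity, for each replicate. There are six technical replicates.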

Ab-14 is the parent antibody, in scFv form: VH, then a (GGGGS)3 linker, then VL. The light chain is unchanged in all variants.
VH: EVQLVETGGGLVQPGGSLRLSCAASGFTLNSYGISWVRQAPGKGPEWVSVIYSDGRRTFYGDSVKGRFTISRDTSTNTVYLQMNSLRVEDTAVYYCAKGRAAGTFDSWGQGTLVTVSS
VL: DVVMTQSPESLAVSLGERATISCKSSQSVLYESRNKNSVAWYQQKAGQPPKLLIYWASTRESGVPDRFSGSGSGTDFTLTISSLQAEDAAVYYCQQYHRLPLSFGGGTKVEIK

The parent's heavy chain CDRs are GFTLNSYGIS, VIYSDGRRTFYGDSVK, GRAAGTFDS; each variant's own CDRs replace them letter for letter. Kd is apparent (estimated from mating counts) and averaged on the log scale over replicates with a signal. Smaller is tighter. "nd" marks a missing value. The strain was present, yet no cells mated with the target were sequenced in any replicate, which points to weak or no binding. As a blank, each scFv also met three strains without target: over all heavy chain designs, 1% of these pairings were detected, typically at 120 nM and seldom below 7.0 nM. Also given: how often the same scFv was detected with the empty control strains. The range of this assay differs from that of the first round, and the authors advise against merging the two. In the paper, a design with two or fewer of six values counts as a poor binder. Of ten entries with the parent sequence, four were seen in most replicates (averages 2.2 nM to 240 nM), three in one and three in none, so single entries are noisy.

CDR-H1,CDR-H2,CDR-H3,group,Kd (apparent),replicates with signal,control signals
GFDLEDYGIS,VIYADGKRTAYADSVK,GQNAGTFDV,En_Gen,2.7 nM,6/6,0/18
GFNLNEYGIS,VIYADGRRTFYADSVK,GEIAGTFDT,En_HC,310 pM,6/6,0/18
GFTLNEYGIS,VIYSDGRRTFYGDSFK,GRASGTFDS,Ctrl,190 pM,5/6,0/18
GFSLDEYGIS,VIYADGLRTQYSNKVK,GLQGGFFDQ,En_Gibbs,230 nM,1/6,0/18
GFDLDEYGIS,VIYADGMRTAYSDSVK,GNEAGTFDI,En_Gen,400 pM,6/6,0/18
GFSLDEFGIS,VIYADGMRSFYTDNVK,GINGNALVI,En_Gibbs,nd,0/6,0/18
GFALNSYGIS,VIYSDGRRTFYIDSVK,GRQAGTFDS,GPLM_Gibbs,44 nM,5/6,0/18
GFDLNSYGIS,VIYSDGRRTFYADKVK,GREAGTFDS,GP_Gibbs,920 pM,6/6,1/18
GFDLNEYGIS,VIYADGQRTAYADKVK,GNVAGTFDT,En_Gen,3.6 nM,5/6,0/18
GFTLNSYGIS,VIYSDGRRTFYGDAVK,GRAAGTFDL,Ctrl,75 nM,1/6,0/18
GFTLNSYGIS,VIYSDGRTQFYGDSVK,GRAAGTFDY,Ctrl,nd,0/6,0/18
GFTLNEYGIS,VIYSDGRRTFYGDSVK,GRAAGTFMN,GP_HC,nd,0/6,0/18
GFDLESYGIS,VIYADGSRTAYADSVK,GNVAGTFNI,En_HC,920 pM,6/6,0/18
GFGLGEYGIS,VIYADGRRTFYKDDVK,GHFIVYGVD,En_Gibbs,nd,0/6,0/18
GFTLNEYGIS,VIYADGRRTFYGDSVK,GRAAGTFES,GP_HC,770 pM,6/6,0/18
GKKLDEYGIS,VIYADGQRAAYTEDVK,GLQNNVQIV,En_Gibbs,nd,0/6,0/18
GFTLNSYGIS,VIYSDGRRTFYGDSVK,GRAAKTFPS,Ctrl,19 nM,3/6,0/18
GFTLNEYGIS,VIYSDGRRTFYGDSVK,GRTAGTFDA,GPLM_Gen,280 pM,6/6,1/18
GFDLNEYGIS,VIYADGQRTAYADSVK,GNLAGTFDV,En_Gen,300 pM,6/6,2/18
GKHLDEYGIS,VIYADGQRVAYADTVK,GIQGVNVDV,En_Gibbs,85 nM,1/6,0/18
GFDLNEYGIS,VIYADGMRTAYIDSVK,GNVAGTFDT,En_Gen,420 pM,6/6,0/18
GFTLNSYGIS,VIYSDGRRTFYGDSVK,GGAEWTFDS,Ctrl,nd,0/6,0/18
GFSLNSYGIS,VIYADGRRTFYGDRVK,GQAAGTFDK,GP_Gibbs,210 pM,6/6,1/18
GFSLNEYGIS,VIYSDGRRTFYGDNVK,GRAAGTFDS,Ctrl,2.6 nM,6/6,3/18
GFTLGSYGIS,VIYSDGRRTAYGDSVK,GHMAITFDS,Ctrl,36 nM,5/6,0/18
GFELNDYGIS,VIYSDGRRTMYIDSVK,GRAAGTFDS,GP_HC,49 nM,6/6,0/18
GFSLNSYGIS,VIYSDGRRTFYGDSVK,GWVAGTFDT,GPLM_Gibbs,3.0 nM,6/6,0/18
GFTLNSYGIS,VIYSDGRRTFYDDSVK,GRQAGTFDS,Ctrl,70 nM,4/6,0/18
GFDLNSYGIS,VIYSDGRRTMYGDSVK,GRNAGTFDS,GP_Gen,2.5 nM,6/6,0/18
GHTLNDYGIS,VIYSDGRRTQYIDSVK,GRAAGTFDS,GPLM_HC,nd,0/6,0/18
GFELDEMGIS,VIYADGKRAAYSDNVK,GDNRGIFHL,En_Gibbs,1.1 µM,1/6,0/18
GFELNNYGIS,VIYSDGKRTFYGDSVK,GRTAGTFDS,GP_Gen,15 nM,5/6,0/18
GFTLDSYGIS,VIYSDGRRTFYGDSVK,GRAAGTFDD,GPLM_HC,6.5 nM,5/6,1/18
GFTLESYGIS,VIYSDCRRTFYGDSVK,GQAAGMFDS,Ctrl,170 nM,1/6,1/18
GFQLNEYGIS,VIYSDGRRTFYGDSVK,GQTAGTFDT,GP_Gen,1.1 nM,6/6,1/18
GFTLMSYGIS,VIYSDGRRTFYADSVK,GRAAGTFDS,Ctrl,24 nM,6/6,0/18
GFDLNSYGIS,VIYSDGRRTFYMDSVK,GRTAGTFDS,GPLM_Gen,600 pM,6/6,0/18
GFSLNSYGIS,VIYSDGRRTFYADSVK,GNTAGTFDT,GP_Gibbs,160 pM,6/6,0/18
GFSLNSYGIS,VIYSDGRRTFYADSVK,GRTAGTFWS,GPLM_Gen,nd,0/6,0/18
GFTLNEYGIS,VIYSDGRRTFYGDSVK,GHAAGTFDA,GP_HC,3.2 nM,6/6,0/18
GFGLNEYGIS,VIYSDGRRTFYIDSVK,GRAAGTFDS,GPLM_HC,2.5 nM,5/6,0/18
GFDIEDYGIS,VIYADGMRSSYSNSFK,GLQSGNISV,En_Gibbs,510 nM,2/6,2/18
GFTLHSYGIS,VIYSDGRRTFYGDNVR,GRAAGTFLS,Ctrl,nd,0/6,0/18
GFDLNTYGIS,VIYSDGRRTFYCDSVK,GQAAGTFDS,GP_Gibbs,4.4 nM,6/6,0/18
GFDLNEYGIS,VIYADGIRTAYADDVK,GNQAGTFDV,En_Gen,260 pM,6/6,0/18
GFSLNSYGIS,VIYSDGRRTFYADHVK,GQAAGTFDT,GP_Gibbs,2.8 nM,6/6,0/18
GFTLESYGIS,VIYSDGRRTFYGDKVK,GKTAGTFDS,GP_Gibbs,2.5 nM,6/6,0/18
GITLNEYGIS,VYYSDGRRTFYAPSVK,GRAAVTFDQ,Rand,nd,0/6,0/18
GFTLNDYGIS,VIYSDGRRTFYGDSVK,GRAAVTFDQ,GPLM_HC,nd,0/6,1/18
GFDLNEYGIS,VIYADGKRTYYADSVK,GQVAGTFDV,En_Gen,56 nM,3/6,0/18
GETLNSYGIS,VIYSDGLRTFYGDSVK,GAAAGTFLS,Ctrl,nd,0/6,0/18
GFDLEEYGIS,VIYADGRRTFYADSVK,GEAAGTFDS,En_HC,400 pM,6/6,0/18
GFDLNEYGIS,VIYADGMRTAYADSVK,GEVAGTFDI,En_Gen,1.1 nM,5/6,0/18
GFTLNSYGIS,VIYADGRKTFYGDSVK,GRANGTNKS,Rand,nd,0/6,0/18
GFDLNEYGIS,VIYADGRRTFYSDSVK,GEVAGFFDQ,En_HC,660 nM,3/6,1/18
GFDLDEYGIS,VIYADGKRTAYADSVK,GNEAGTFDV,En_Gen,530 pM,6/6,1/18
GFTLNSYGIS,VIYSDGFRTFYTDSVK,GRAAGFIDS,Ctrl,nd,0/6,0/18
GFDLDEYGIS,VIYADGMRTAYQDSVK,GNVAGTFDL,En_Gen,510 pM,6/6,1/18
GFDLNSYGIS,VIYSDGRRTFYIDSVK,GSAAGTFDS,GPLM_HC,1.7 nM,6/6,0/18
GFSLNEYGIS,VIYSDGRRTFYGDSVK,GHAAGTFDK,GP_Gen,nd,0/6,0/18
GFKLNSYGIS,VIYSDGRRTFYSDSVK,GQTAGTFDS,GP_HC,4.4 nM,6/6,2/18
GFQLNSYGIS,VIYSDGRRTFYADSVK,GREAGTFDS,GPLM_Gibbs,8.4 nM,5/6,0/18
GFSLNSYGIS,VIYSDGRRTFYGDQVK,GKAAGTFDR,GP_Gibbs,nd,0/6,1/18
GFDLNEYGIS,VIYADGQRTAYVDSVK,GNVAGTFDV,En_Gen,200 pM,6/6,0/18
GFDLNEYGIS,VIYADGRRTFYADSVK,GNVAGTFSS,En_HC,160 pM,6/6,0/18
GFDLNEYGIS,VIYADGVRTFYADSVK,GQVAGTFDV,En_Gen,200 pM,6/6,0/18
GFDLNEYGIS,VIYADGRRTQYADSVK,GNEAGTFDS,En_HC,3.6 nM,6/6,0/18
GFDLNSYGIS,VIYSDGRRTFYKDSVK,GTAAGTFKS,Ctrl,3.5 nM,1/6,0/18
GFTLNDYGIS,VIYSDGRRTQYIDSVK,GRAATRFDS,Rand,nd,0/6,0/18
GFGLDEYGIS,VIYADGRRTFYQDSVK,GNVAGTFDQ,En_HC,680 pM,6/6,0/18
GFDINEYGIS,VIYADGMRTFYTDSVK,GGNAGTFDS,En_HC,1.6 nM,6/6,1/18
GFTLNSYGIS,VIYSDGRRTFYGDSVK,GRMAGTFDT,GPLM_Gen,25 nM,2/6,0/18
GFTLNDYGIS,VIYSDGRRTQYGDSVK,GRAAGTFKS,Ctrl,nd,0/6,0/18
GFDLNEYGIS,VIYADGKRTAYADNVK,GNVAGTFDM,En_Gen,nd,0/6,0/18
GQTLNSYGIS,EIYADGRRTFYIDSVK,WRAAGTFVS,Ctrl,nd,0/6,0/18
GFNLNSYGIS,VIYSDGMRTFYVDSVK,GRQAGTFDS,GP_Gen,31 nM,6/6,0/18
GFDLNMYGIS,VIYSDGRRTFYADSVK,GRTAGTFDS,GPLM_Gibbs,1.1 nM,6/6,0/18
GFDLDEYGIS,VIYADGMRTFYTDSVK,GEVAGTFDA,En_HC,1.2 nM,6/6,0/18

Excerpt, the final 4 entries:

| CDR-H1 | CDR-H2 | CDR-H3 | group | Kd (apparent) | replicates with signal | control signals |
|---|---|---|---|---|---|---|
| GQTLNSYGIS | EIYADGRRTFYIDSVK | WRAAGTFVS | Ctrl | nd | 0/6 | 0/18 |
| GFNLNSYGIS | VIYSDGMRTFYVDSVK | GRQAGTFDS | GP_Gen | 31 nM | 6/6 | 0/18 |
| GFDLNMYGIS | VIYSDGRRTFYADSVK | GRTAGTFDS | GPLM_Gibbs | 1.1 nM | 6/6 | 0/18 |
| GFDLDEYGIS | VIYADGMRTFYTDSVK | GEVAGTFDA | En_HC | 1.2 nM | 6/6 | 0/18 |